Data: publication PMC12597549 (Drug Metabolism and Disposition, 2025)
Positions count from the first letter of the chain named.

Experiments:
UGT2B7^268Tyr = molecular target: T1, UGT2B7^268Tyr (Homo sapiens, UniProt P16662); assay: biochemical
T1 sequence (P16662 24-529): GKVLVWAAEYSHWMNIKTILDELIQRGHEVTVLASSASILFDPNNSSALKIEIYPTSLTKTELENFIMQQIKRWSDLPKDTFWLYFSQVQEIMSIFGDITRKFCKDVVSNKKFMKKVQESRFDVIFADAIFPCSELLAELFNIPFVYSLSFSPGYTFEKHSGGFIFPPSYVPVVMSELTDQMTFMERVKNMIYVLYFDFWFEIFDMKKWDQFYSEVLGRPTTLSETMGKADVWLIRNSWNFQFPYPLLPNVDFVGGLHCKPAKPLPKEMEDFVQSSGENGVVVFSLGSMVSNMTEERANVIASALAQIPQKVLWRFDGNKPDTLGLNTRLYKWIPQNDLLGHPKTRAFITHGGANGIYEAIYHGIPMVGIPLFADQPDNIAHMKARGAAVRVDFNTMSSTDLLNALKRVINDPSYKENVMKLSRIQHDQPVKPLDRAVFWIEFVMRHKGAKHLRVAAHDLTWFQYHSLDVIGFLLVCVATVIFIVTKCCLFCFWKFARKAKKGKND

UGT2B7^268His [1] = molecular target: T2, UGT2B7^268His (Homo sapiens, UniProt P16662, Y268H); assay: Inhibition of hydromorphone glucuronidation (HM3G formation) by cannabinoids in rUGT2B7^268His microsomes; type: biochemical; set-up: expressed in transfected cells; microsomal membrane fraction
T2 sequence (P16662 24-529 Y268H): T1 sequence (P16662 24-529) with Y245H

UGT2B7^268His [2] = molecular target: T2, UGT2B7^268His; conditions: CLint ratio relative to UGT2B7^268His microsomes
[3] = human, in vivo; cited from earlier work
[4] = cited from earlier work

Structure (SMILES) | IC50 (UGT2B7^268Tyr) | IC50 (UGT2B7^268His [1]) | Relative Activity (UGT2B7^268His [2]) | fe, fraction excreted unchanged in urine [3] | potency relative to morphine (times more potent) [4]
C=C(C)[C@@H]1CCC(C)=C[C@H]1c1c(O)cc(CCCCC)cc1O [CBD, cannabidiol] | 150 ± 20 nM | 74 ± 10 nM | – | – | –
CN1CC[C@]23c4c5ccc(O)c4O[C@H]2C(=O)CC[C@H]3[C@H]1C5 [hydromorphone] | – | – | 1.0 | g CLR was calculated based on fe, fraction excreted unchanged in urine (0.07; Dilaudid package insert). | 5–10 times
